The values below come from US20240294525A1, “COMPOUNDS AS GLP-1 RECEPTOR AGONISTS AND USES THEREOF” (CGENETECH (SUZHOU, CHINA) CO., LTD., priority 2021, published 2024).

The chains behind the UniProt entries cited, without tags or fusion partners. Residues count along the entry.
UniProt P43220, 24-463 limits assumed: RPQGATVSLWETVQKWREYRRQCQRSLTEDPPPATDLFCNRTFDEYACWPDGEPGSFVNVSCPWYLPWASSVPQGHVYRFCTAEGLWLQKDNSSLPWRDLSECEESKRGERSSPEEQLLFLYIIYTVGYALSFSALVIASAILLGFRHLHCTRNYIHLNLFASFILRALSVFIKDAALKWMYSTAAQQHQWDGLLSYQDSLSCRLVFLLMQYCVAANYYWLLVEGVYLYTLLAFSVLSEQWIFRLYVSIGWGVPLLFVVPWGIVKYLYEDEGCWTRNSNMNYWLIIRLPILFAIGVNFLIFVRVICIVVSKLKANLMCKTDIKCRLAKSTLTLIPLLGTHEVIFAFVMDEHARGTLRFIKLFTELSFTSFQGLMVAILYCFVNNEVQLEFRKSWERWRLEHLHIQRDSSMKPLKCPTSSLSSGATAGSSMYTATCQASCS

What is called AUC(0-t) is exposure summed from dosing to a finite time, without extrapolation to infinity. A low value points to less exposure. Broadly, the Cmax is the maximum level reached in the sampled fluid or tissue. One may read the Tmax as the time at which the peak concentration occurs. In general, pEC50 refers to the negative decadic logarithm of the EC50, by convention in mol/L. A lower pEC50 goes with a high EC50.

Each structure is given as a SMILES string. pEC50: −log10 of the molar value.

The nature of data set [1]: Oral pharmacokinetics in mice. Type of data set: in vivo. Particulars: male C57 mice, intragastric, 10 mg/kg. The protocol:
Compounds 1, 2, 6, 7, 8, 9, 10, 11, 13, 17, 18, and 19 of the present application and a known control medicament PF-06882961 were subjected to a pharmacokinetic test by using the following experimental procedures:
Healthy male C57 mice (9 mice per compound, n=3), purchased from Shanghai Jihui Laboratory Animal Care Co., LTD, with an age of 6-8 weeks.
The mice were fasted overnight before oral administration, and drunk freely, and feeding was resumed after 4 h of the administration. According to the weight of the mice weighed before the administration, the administration dose was calculated. It was intragastrically administered, and the administration dose was 10 mg/kg. At 0.083 h, 0.25 h, 0.5 h, 1 h, 2 h, 4 h, 8 h, and 24 h after the administration to test animals, about 110 μL of whole blood were respectively collected from submandibular veins of the mice by a semi-continuous method, and placed in a test tube containing K2EDTA. The tube was placed on ice, and centrifuged within 30 min (2000 g, 5 min, 4° C.), plasma was collected, transferred to an appropriately labeled test tube, and frozen at −80° C. in a refrigerator.
A chromatographic column was Waters ACQUITY UPLC BEH C18 (2.1×50 mm, and 1.7 μm); mobile phase A: H2O-0.025% FA-1 mM NH4OAC, mobile phase B: ACN-0.025% FA-1 mM NH4OAC, flow rate: 0.60 mL/min, gradient elution program: start, 2% B, 0.2 min; 60% B, 0.7 min; 90% B, 1.50 min; 90% B, 2.0 min; 2% B, 2.01 min; 2.6 min, and stop; column temperature: 50° C.; and injection volume: 1 μL.
Mass spectrometry method: LC-MS/MS-49 (Triple Quad 6500+)(SCIEX, USA), the ion source was an ESI source, the detection mode was positive ion detection, and the scanning mode was a multi-reaction monitoring (MRM) mode, m/z: 446.20/321.10 Da (Glipizide, internal standard).
10 μL of a plasma sample was taken and 200 μL of an internal standard working solution (Glipizide, 50 ng/mL) was added, vortex was performed for 1 min, then the mixture was centrifuged at 5800 rpm for 10 min. 70 μL of a supernatant was transferred to a 96-well plate, and 1 μL of the supernatant was taken and injected into LC-MS/MS for analysis.
Pharmacokinetic (PK) parameters were calculated by using Phoenix WinNonlin 7.0; and the oral pharmacokinetic parameters of the mice, including AUC, Cmax, Tmax, T1/2 and the like, were estimated by using a non-compartmental model. Results of the oral pharmacokinetic parameters of Compounds 1, 2, 6, 7, 8, 9, 10, 11, 13, 17, 18, and 19 and PF-06882961 in the mice are shown in Table 2. PGP-46 T2

For another data set, the target named is GLP-1R (Homo sapiens, UniProt P43220). Nature of the data set: GLP-1R cAMP experiment (HTRF cAMP agonist detection). Type of data set: cell-based. Particulars: GLP-1R-HEK293 cells. In general terms: In TR-FRET formats the signal depends on donor and acceptor labels being close together.

As to `C#Cc1ccc(COc2cccc(N3CCN(Cc4nc5ccc(C(=O)O)nc5n4C[C@@H]4CCO4)CC3)n2)c(Cl)c1`, in data set [1], the “AUC(0-t)” value amounted to 4152.0 ng·h/mL, the “AUC(0-∞)” value is 4383.0 ng·h/mL, the Cmax worked out at 1763.0 ng/mL and the “MRT(0-t)” value is given as 1.8 h. Also, in data set [1], the “MRT(0-∞)” value stood at 2.3 h, the T1/2 was determined as 2.1 h, the Tmax stood at 0.50 h and the “half-life (T1/2) and/or overall exposure (AUC) compared with PF-06882961” value is “longer half-lives (T1/2) and/or higher overall exposure doses (AUC)”. Besides, on GLP-1R, the pEC50 was 9.44.

With `C#Cc1ccc(COc2cccc(N3CCN(Cc4nc5c(F)cc(C(=O)O)cc5n4C[C@@H]4CCO4)CC3)n2)c(F)c1`, in data set [1], the “AUC(0-t)” value amounted to 3587.0 ng·h/mL, the “AUC(0-∞)” value worked out at 3596.0 ng·h/mL, the Cmax was 2960.0 ng/mL and the “MRT(0-t)” value amounted to 1.7 h. Moreover, in data set [1], the “MRT(0-∞)” value is reported as 1.7 h, the T1/2 is on record as 3.1 h, the Tmax was determined as 0.25 h and the “half-life (T1/2) and/or overall exposure (AUC) compared with PF-06882961” value is listed as “longer half-lives (T1/2) and/or higher overall exposure doses (AUC)”.

The molecule `C#Cc1ccc(COc2nc(N3CCN(Cc4nc5ccc(C(=O)O)nc5n4C[C@@H]4CCO4)CC3)ccc2F)c(C)c1` showed a pEC50 at GLP-1R of 8.89.

As to `C#Cc1ccc(COc2nc(C3CCN(Cc4nc5ccc(C(=O)O)cc5n4C[C@@H]4CCO4)CC3)ccc2F)c(F)c1`, at GLP-1R, the negative logarithm of the EC50 (pEC50) was 9.24.
